# Laboratory results taken from ChEMBL document CHEMBL2010643 (Bioorg Med Chem Lett, 2012).
# The chains behind the UniProt entries cited, without tags or fusion partners. Where a name states a change or a piece, a line headed by the entry shows the natural chain unless it says otherwise.
# UniProt Q9H422: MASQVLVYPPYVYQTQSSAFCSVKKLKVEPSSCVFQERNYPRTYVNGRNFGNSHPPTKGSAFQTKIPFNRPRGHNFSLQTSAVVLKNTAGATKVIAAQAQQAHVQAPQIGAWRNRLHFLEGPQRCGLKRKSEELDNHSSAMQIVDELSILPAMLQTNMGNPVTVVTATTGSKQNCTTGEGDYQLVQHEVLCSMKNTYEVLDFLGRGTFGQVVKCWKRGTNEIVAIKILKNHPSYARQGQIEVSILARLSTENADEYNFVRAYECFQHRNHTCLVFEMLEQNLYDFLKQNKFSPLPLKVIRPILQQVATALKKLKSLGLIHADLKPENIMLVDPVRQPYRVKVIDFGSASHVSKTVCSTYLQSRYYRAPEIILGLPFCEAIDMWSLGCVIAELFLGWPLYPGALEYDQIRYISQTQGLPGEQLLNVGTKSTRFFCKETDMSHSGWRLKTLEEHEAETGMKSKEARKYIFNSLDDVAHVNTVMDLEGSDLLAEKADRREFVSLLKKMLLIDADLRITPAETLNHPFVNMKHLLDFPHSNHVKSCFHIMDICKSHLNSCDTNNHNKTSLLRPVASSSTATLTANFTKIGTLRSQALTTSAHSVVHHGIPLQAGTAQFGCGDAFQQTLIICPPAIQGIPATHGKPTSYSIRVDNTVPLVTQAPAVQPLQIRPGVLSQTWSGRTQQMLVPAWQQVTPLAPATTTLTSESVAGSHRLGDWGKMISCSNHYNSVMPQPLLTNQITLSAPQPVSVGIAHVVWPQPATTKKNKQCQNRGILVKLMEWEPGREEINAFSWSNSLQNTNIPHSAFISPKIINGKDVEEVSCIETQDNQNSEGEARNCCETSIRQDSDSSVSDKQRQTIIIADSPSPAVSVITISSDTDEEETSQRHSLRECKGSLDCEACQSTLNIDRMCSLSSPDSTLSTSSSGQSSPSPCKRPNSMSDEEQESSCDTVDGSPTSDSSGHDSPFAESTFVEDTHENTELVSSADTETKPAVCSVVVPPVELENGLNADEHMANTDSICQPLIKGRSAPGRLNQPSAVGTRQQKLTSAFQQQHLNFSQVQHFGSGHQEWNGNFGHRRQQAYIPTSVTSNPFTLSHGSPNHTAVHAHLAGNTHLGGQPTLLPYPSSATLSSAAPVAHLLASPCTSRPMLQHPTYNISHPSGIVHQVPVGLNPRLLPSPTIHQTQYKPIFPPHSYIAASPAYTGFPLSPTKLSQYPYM
# Biological target: Homeodomain-interacting protein kinase 3 (Homo sapiens) (UniProt Q9H422)
# Test: Inhibition of HIPK3 assessed as residual activity at 1 uM relative to control
compound,measurement,value
COc1cc(N2CCC(N3CCN(C)CC3)CC2)ccc1Nc1ncc(Cl)c(Nc2ccccc2S(=O)(=O)C(C)C)n1 [TAE-684],Activity,81%
